Results from US20200261490A1.

Target: recombinant human PAPP-A (pregnancy-associated plasma protein-A, pappalysin-1) (human) (UniProt Q13219)
Experiment: kinetic analysis of inhibition of PAPP-A cleavage of 125I-IGFBP-4; Morrison Ki model

Ki: 0.068 nM
Substance: recombinant human stanniocalcin 1, C-terminally myc-his-tagged (from UniProt P52823 34-247)
